Earlier results as cited in patent publication US8927489B2, “Sustained release preparation of pro-insulin C-peptide” (Cebix Incorporated, priority 2005, dated 2015).

Conditions: cited from earlier work

## insulin [reference compound]
  in vivo half life circulating in blood: 4 to 5 min
